Measured values published in patent US10183008B2, “Treatment of prolonged status epilepticus” (University of South Carolina, priority 2011, dated 2019).

Key:
[1] = system: tonic inhibition (GABAergic tonic current); assay: Brain slice whole-cell electrophysiology: tonic current in dentate granule cells; type: cell-based, rat; settings: DZP 1 μM, STP 100 μM, n=3-4
[2] = system: lithium-pilocarpine model of S.E.; assay: Lithium-pilocarpine model of status epilepticus, behavioral seizure scoring (Racine scale); type: in vivo, rat; settings: prolonged SE (45 min after stage 3 onset) vs brief SE

In the case of `CC(C)(C)C(O)/C=C/c1ccc2c(c1)OCO2` (centres unmarked) [STP, 1-(3,4-methylenedioxyphenyl)-4,4-dimethylpent-1-en-3-ol], the “potentiation of tonic current during prolonged SE” value [1] is reported as “but not STP” and the “pharmacoresistance following prolonged SE (shift of ED50 for seizure termination)” value [2] is reported as “develops little pharmacoresistance”.
